Measured values reported in US20050218079A1, “Poly-beta-carboxyacrylamide polymer, use thereof and process for preparing the same” (priority 2002, published 2005).

Tested on: Vibrio fischeri

**Q.** Which toxicity verdict does the source give for “poly-β-carboxyacrylamide polymer [compound of formula (I)]” here?
**A.** The toxicity verdict was “non-toxic”.
